Results published in patent US20050084916A1, “Identification of the IkappaBNS protein and its products” (priority 2001, published 2005).

System: DP thymocytes
Assay: Antisense oligonucleotide blockade of VSV8-induced negative selection in FTOC (FACS)
Conditions: then VSV8 for 4 h; for percentage of DP thymocytes: oligonucleotide 200 μg/ml for 12-19 h, VSV8 alone 22%, control 57%; for effect on the antigen-induced loss of thymocytes: oligonucleotide 200 μg/ml, absolute cell numbers

Substance	percentage of DP thymocytes [%]	effect on the antigen-induced loss of thymocytes
5′AGAGTCCTCCATCACCAGGGG3′	52	almost completely blocks
5′CCCCTGGTGATGGAGGACTCT3′	21	no effect
